Assay results from PubChem BioAssay AID1508611 (The Scripps Research Institute Molecular Screening Center, 2020).
This is a selection; strong and weak results do not stand in their true shares. Activity calls are given as the source filed them.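 How the source made its calls: active means mean percent activation in the counterscreen above 29.09%; inactive means the rest.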

Sequences of proteins named here, by UniProt entry; tags and fusion partners are left off.
UniProt Q8TDV5, whole entry: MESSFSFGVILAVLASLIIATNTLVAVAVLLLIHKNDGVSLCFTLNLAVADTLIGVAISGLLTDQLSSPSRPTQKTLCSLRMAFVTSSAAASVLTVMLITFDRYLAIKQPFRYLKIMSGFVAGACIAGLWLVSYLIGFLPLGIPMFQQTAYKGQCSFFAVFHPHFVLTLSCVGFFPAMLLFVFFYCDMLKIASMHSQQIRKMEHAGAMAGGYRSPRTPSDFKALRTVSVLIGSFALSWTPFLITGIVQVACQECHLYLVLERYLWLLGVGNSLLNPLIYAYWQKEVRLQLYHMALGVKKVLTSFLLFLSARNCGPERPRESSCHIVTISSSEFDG

The molecules below were run against Glucose-dependent insulinotropic receptor (Homo sapiens) (UniProt Q8TDV5) (assay: off-target GPR119 activation – cell-based, PathHunter beta-arrestin, luminescence, triplicate, counter-screen for GPR151 activator project (AID 1508611;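 further: counterscreen on off-target GPR119 to flag nonselective hits from the GPR151 activator screen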)). Conditions: GPR119 PathHunter beta-arrestin cells, 90 min, at 11.2 µM, stronger effect = higher value, 0 = compound-well median, 100 = enzyme-acceptor control.

Compound | activation
CCCN1CCC(Nc2ccc(Cl)cc2)CC1 | inactive: 8.37%
